According to paper PMC4724290 (Synapse (New York, N.Y.), 2015):
Structures can show the parent of a compound that is named as a salt.

By UniProt entry, the sequences of proteins in these tests, tags left out.
UniProt O55242, whole entry: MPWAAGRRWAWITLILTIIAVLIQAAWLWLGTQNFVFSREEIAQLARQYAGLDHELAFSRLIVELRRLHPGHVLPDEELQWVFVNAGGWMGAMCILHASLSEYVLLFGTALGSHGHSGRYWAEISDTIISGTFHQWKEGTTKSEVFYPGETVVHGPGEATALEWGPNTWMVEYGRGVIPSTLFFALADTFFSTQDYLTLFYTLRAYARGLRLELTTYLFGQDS

Columns and labels:
[1] = target: T1, σ2 receptors (Mus musculus, UniProt Q8VD00); experiment: In vitro σ2 receptor binding, [^3H]DTG/; set-up: species or system CD-1 mouse; conditions: for Sigma2 nH: 3.0 nM [^3H]DTG/500 nM (+)pentazocine, 25 °C, 60 min
T1 sequence (Q8VD00 1-176): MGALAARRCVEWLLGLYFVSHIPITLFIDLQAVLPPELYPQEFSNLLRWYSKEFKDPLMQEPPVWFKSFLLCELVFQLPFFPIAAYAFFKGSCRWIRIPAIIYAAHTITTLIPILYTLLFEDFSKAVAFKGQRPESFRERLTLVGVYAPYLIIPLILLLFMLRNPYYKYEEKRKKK

[2] = target: σ1 receptors (Mus musculus, UniProt O55242); experiment: In vitro σ1 receptor binding, [^3H]; conditions: CD-1 mouse whole brain membranes

Compound | Sigma2 nH [1] | Selectivity Ki Ratio σ2/σ1 [2] | σ2 affinity relative to Kovács and Larson (1995) value (lower) ([1]; 26810 vs 1740 nM)
CC(C)=CCN1CC[C@]2(C)c3cc(O)ccc3C[C@H]1[C@H]2C [(+)-Pentazocine, (+)-pentazocine] | 0.86 ± 0.04 | 404 | –
COc1ccc2c(c1)[C@]13CCCC[C@@H]1[C@H](C2)N(C)CC3 [Dextromethorphan, dextromethorphan hydrobromide] | 1.02 ± 0.07 | 425 | 15 fold
